From PubChem BioAssay AID1775 (NMMLSC, 2009)
Only a part is listed here, and it is no random draw. Some of these compounds have results that are not shown, active ones among them. Active and inactive are the calls of the source. Rule as the data show it: active = fluorescence above about 47; inactive = the rest.

Assay: green autofluorescence of compounds with avidin beads – biophysical, 488/530 nm, flow cytometry, artefact control, profiling panel (AID 1775)
Details: compound fluorescence 488/530 nm, at 10 µM, stronger effect = higher value
With O=C(OC1CN2CCC1CC2)C(CO)(c1ccccc1)c1ccccc1 (stereo unspecified) the fluorescence (KMESF) was inactive: 12.
In the case of COc1ccc(Br)c(C(=O)NCC2(N3CCCCC3)CCCCC2)c1, the fluorescence (KMESF) was inactive: 7.
For CN(C)c1cccc(C(=O)NCC2(N(C)C)CCCCC2)c1, the fluorescence (KMESF) was inactive: 39.
With COc1cccc(C(=O)NCC2(N3CCCCC3)CCCCC2)c1 the fluorescence (KMESF) was inactive: 9.
In the case of Cc1ccccc1C(=O)NCC1(N2CCCCC2)CCCCC1, the fluorescence (KMESF) was inactive: 12.
In the case of CN(C)C1CCCC1OC(=O)C(O)(c1ccccc1)c1ccccc1 (stereo unspecified), the fluorescence (KMESF) was inactive: 7.
In the case of C=CCN1CCN(CCOC(=O)C(O)(c2ccccc2)c2ccccc2)CC1, the fluorescence (KMESF) was inactive: 14.
In the case of CCN1CCCC(OC(=O)C2(O)c3ccccc3C=Cc3ccccc32)C1 (stereo unspecified), the fluorescence (KMESF) was inactive: 3.
In the case of O=C(NCC1(N2CCCCC2)CCCCC1)c1cc([N+](=O)[O-])ccc1Cl, the fluorescence (KMESF) was inactive: 6.
In the case of CC(C)N1C(=O)CC2(CCN(CCOC(=O)C(O)(c3ccccc3)c3ccccc3)CC2)C1=O, the fluorescence (KMESF) was inactive: 30.
In the case of CCN(CC)CC(C)C(C)OC(=O)C(O)(c1ccccc1)c1ccccc1 (stereo unspecified), the fluorescence (KMESF) was inactive: 8.
